Source: patent EP4847503A1, “TETRAZOLE COMPOUND, PHARMACEUTICAL COMPOSITION THEREOF AND USE THEREOF” (dated 2026)

Legend:
[1] = Pharmacokinetic behavior in rats; conditions: SD rats; for F(%): intragastric administration 5 mg/kg vs intravenous 1 mg/kg
Description: Test Example 4 Study on the pharmacokinetic behavior of the compounds of the present invention in rats
(§1) Healthy SD rats (SPF grade, source: Beijing Vital River Laboratory Animal Technology Co., Ltd.), 3 animals, male, weighing 180-250 g, were intravenously injected with 1 mg/kg of the compound at a dosing volume of 2 mL/kg. The compound was formulated with 5% DMSO + 10% Solutol + 85% Saline (w/v), and the animals were not fasted prior to the test.
as §1, with “were intragastrically administered” for “were intravenously injected”, “with 5” for “with 1”, “of 10” for “of 2”
(§2) Blood samples (approx. 0.25 mL each) were collected via the vein at 5 min, 15 min, 30 min, 1 h, 2 h, 4 h, 6 h, 8 h, and 24 h after intravenous administration, and at 5 min, 15 min, 30 min, 1 h, 2 h, 4 h, 6 h, 8 h, and 24 h after intragastric administration, respectively, using sodium heparin as an anticoagulant. After collection, the blood samples were placed on ice, and the plasma was separated by centrifugation within 1 hour (centrifugation conditions: 6000 g, 3 minutes, 2-8 °C). The concentration of the compound in plasma was determined by liquid chromatography-tandem mass spectrometry. Plasma samples were stored in a -80 °C freezer before analysis. Pharmacokinetic parameters were calculated using Phoenix WinNonlin 8.2.0 based on plasma concentration data at different time points.

[2] = Pharmacokinetic behavior in mice; conditions: ICR mice; for F(%): intragastric administration 5 mg/kg vs intravenous 1 mg/kg
Description: Test Example 3 Study on the pharmacokinetic behavior of the compounds of the present invention in mice
as §1, with “ICR mice” for “SD rats”, “18-25” for “180-250”, “5 mL/kg,” for “2 mL/kg. The compound was”, “(w/v). Animals” for “(w/v), and the animals”, “were” for “were not”
Healthy ICR mice (SPF grade, source: Beijing Vital River Laboratory Animal Technology Co., Ltd.), 3 animals, male, weighing 18-25 g, were intragastrically administered with 5 mg/kg of the compound at a dosing volume of 10 mL/kg, formulated with 5% DMSO + 10% Solutol + 85% Saline (w/v). Animals were fasted prior to the test.
as §2, with “0.05” for “0.25”, “cheek” for “vein”

[3] = intragastric administration 5 mg/kg

AUClast [1, 3] | Cmax [1, 3] | T1/2 [1, 3] | F(%) [1] | AUClast ([1]; intravenous injection 1 mg/kg) | CL ([1]; intravenous injection 1 mg/kg) | Cmax ([1]; intravenous injection 1 mg/kg) | Vss ([1]; intravenous injection 1 mg/kg) | AUClast [2, 3] | Cmax [2, 3] | T1/2 [2, 3] | F(%) [2] | AUClast ([2]; intravenous injection 1 mg/kg) | CL ([2]; intravenous injection 1 mg/kg) | Cmax ([2]; intravenous injection 1 mg/kg) | Vss ([2]; intravenous injection 1 mg/kg) | SMILES
5617 ng·h/mL | 3303 ng/mL | 1.3 h | 38.3% | 2936 ng·h/mL | 5.69 mL/kg/min | 5321 ng/mL | 0.263 L/kg | 4812 ng·h/mL | 4373 ng/mL | 3.3 h | 31.7% | 3043 ng·h/mL | 5.48 mL/kg/min | 4817 ng/mL | 0.212 L/kg | CC(C)Cc1cc(F)c(-c2nn[nH]n2)c(N2CCN(Cc3cccnn3)[C@@H](C)C2)c1
19592 ng·h/mL | 3729 ng/mL | 3.6 h | 99% | 3939 ng·h/mL | 4.46 mL/kg/min | 2700 ng/mL | 0.5 L/kg | 12988 ng·h/mL | 10922 ng/mL | 1.3 h | 91.7% | 2832 ng·h/mL | 5.82 mL/kg/min | 4001 ng/mL | 0.767 L/kg | CC(C)Cc1cc(NC2CC(F)(F)C2)c(-c2nn[nH]n2)c(N2CCN(Cc3cccnn3)[C@@H](C)C2)c1
